# PINK1 modulator = modulators of PINK1 expression | PINK1 immunofluorescence, high-content cytometry, 24 h | Potency, µM (top dose mostly 76.6 µM), inactives show at the highest dose activation (PINK1 increase), usual class: activators | hit rate 0.2% among 410,000 | AID 624263; active = well fitted activation curve with a large enough effect; inconclusive = small, poorly fitted or top-dose-only effect; cell line not stated here; note: potency is the fitted concentration of half-maximal effect; % of control where 0% means no effect; nearly all actives have a fitted effect of over 65% in size
#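 PINK1 protein level read as immunofluorescence by microplate cytometer in a fixed, stained stable cell line after 24 h exposure to five compound concentrations, with CCCP as control.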
# miR-21 reporter = miR-21 reporter, rising signal | 340,000 tested, under 10 active | AID 2288 | HeLa miR-21 FLuc reporter, luciferase, 48 h | Potency, µM (titrated, usually from 38.3 µM), for inactives: at the highest dose reporter change, positive = more light; active = well fitted rising curve with a large enough effect; inconclusive = small, poorly fitted or top-dose-only effect; inactive = no such curve, though single readings can be large or run the other way;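 further: % of control where 0% means no effect; miR-21 action dims this reporter so a rising signal means less miR-21 action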
#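 Using DMEM plus 10% FBS, HeLa miR-21-FLuc cells are incubated with test compounds (final up to about 40uM) for 48 hours; firefly luciferase signal is then imaged following reagent-mediated lysis.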
# TrxR1 substrate = substrates of rat thioredoxin reductase 1 | O89049 | purified TrxR1 substrate turnover, NADPH consumption readout | Potency, µM (top dose mostly 114 µM), for the others: at the highest dose activity change, negative = substrate turnover | hit rate 0.01% among 390,000; note: potency is the fitted concentration of half-maximal effect; % is set by controls: 0 for no effect and ±100 for the full control effect; nearly all actives have a fitted effect of over 50% in size
#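 Rat TrxR1, dispensed at 90 nM, was prereduced with 400 uM NADPH (final) for 5 min at ~22 deg C, then incubated with compound 15 min before 400 uM selenite. A first-read NADPH fluorescence drop versus no-compound background flagged substrates.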
# rTrxR1 inhibitor = inhibitors of rat thioredoxin reductase 1 | AID 588453 | recombinant rTrxR1, NADPH fluorescence consumption, selenite substrate | hit rate 1% among 390,000 | Potency, µM (series often up to 114 µM), for inactives: top-dose activity change, negative = inhibition, usual class: inhibitors; note: potency is the fitted concentration of half-maximal effect; % is set by controls: 0 for no effect and ±100 for the full control effect; nearly all actives have a fitted effect of over 65% in size
#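 Rat TrxR1 (90 nM in the dispensed reagent) was pre-reduced with 400 uM NADPH for 5 min at room temperature, then incubated with compound for 15 min. After 400 uM selenite was added, NADPH fluorescence (Ex 340/Em 450 nm) was followed for 8 min.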
# GALK inh = galactokinase (human) inhibition; P51570; Purified GALK, Kinase-Glo residual ATP luminescence; Potency, µM (highest dose often 57.5 µM), for inactives: top-dose activity change, negative = inhibition, actives largely listed as inhibitors; hit rate 0.007% among 270,000; AID 1868; note: potency is the fitted concentration of half-maximal effect; % is set by controls: 0 for no effect and ±100 for the full control effect
#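 Compounds were pin-transferred into ATP buffer (35 uM final), then GALK plus galactose (5 nM, 100 uM final) was added. After 1 h at room temperature, Kinase-Glo Plus was added and luminescence read after 10 min.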
# Starred values were filed as active, the others as inactive; i = inactive; u = inconclusive; x = no result given; [ ] = dose if it differs, or a comment. The list is not random: actives were taken first. Their share in the collection is about 1.1%. Unless noted, calls come from the whole dose curve; as a rule, active = well fitted curve in the direction sought with a large enough effect; inconclusive = small, poorly fitted or top-dose-only effect, or another doubt; inactive = no such curve, though single readings can be large; an effect the other way counts as inactive or inconclusive.
SMILES,PINK1 modulator,miR-21 reporter,TrxR1 substrate,rTrxR1 inhibitor,GALK inh
CCCCNC(=O)CS(=O)Cc1nc(-c2cccs2)oc1C (stereo not drawn),-1%,-4%,5%[57.1 µM],6.3µM*,3%
Cc1oc(-c2cccs2)nc1CS(=O)CC(=O)NCCc1ccccc1 (stereo not drawn),-1%,-8%,11%[57.1 µM],5.6µM*,2%
Cc1oc(-c2cccs2)nc1CS(=O)CC(=O)NCCCOC(C)C (stereo not drawn),-1%,-4%,1%,13µM*,0%
NS(=O)(=O)c1cccc(NC(=O)Cn2cnc3ccccc3c2=O)c1,11µM*,2%,5%,14%,0%
CCCCCCCCCC[n+]1cccc2cc(Br)ccc21,x,x,-3%,1%,x
COc1ccc(-c2ccc(C(=O)N3CCc4c(cnc(C)c4CNS(=O)(=O)N(C)C)C3)o2)cc1,0%,x,x,x,x
COC(=O)CSC1=C(C#N)C(=O)NC(c2ccccc2)S1 (stereo not drawn),9%,4%,-24%,28µM*,-2%
CSC1=C(C#N)C(=O)NC(c2ccccc2O)S1 (stereo not drawn),1%,-3%,-2%[57.1 µM],u,-15%
O=[N+]([O-])c1cnc2ccccc2c1,-1%,-5%,1%[57.1 µM],-14%[57.1 µM],x
O=[N+]([O-])c1cc([N+](=O)[O-])c2cc3ccccc3nc2c1,20%,8%,4%,45µM*,-7%
COc1cccc(/C=C/c2nc(C#N)c(N3CCC(C(N)=O)CC3)o2)c1,0%,-21%,i,79µM*,x
COc1cccc(/C=C/c2nc(C#N)c(N3CCCCCC3)o2)c1,0%,-6%,351%,81%,x
FC(F)(F)c1cccc(-c2nc3nc(Cl)c(Cl)nc3[nH]2)c1,2.8µM*,1%,56%[57.1 µM],15%[2.29 µM],-3%
O=C(CCCN1C(=O)/C(=C\c2ccccc2)SC1=S)Nc1ccc(C(=O)O)cc1,0%,-3%,-6%,u,-6%
CC(=O)c1ccc(NC(=O)CCCN2C(=O)/C(=C/C(C)=C/c3ccccc3)SC2=S)cc1,22µM*,-3%,-14%,-23%,0%
O=C(CCCN1C(=O)/C(=C\c2ccco2)SC1=S)Nc1ccc(O)cc1C(=O)O,-1%,2%,-15%,50µM*,-9%
O=C(CCCN1C(=O)/C(=C\c2cccs2)SC1=S)Nc1ccc(C(=O)O)cc1,-1%,-2%,79µM*,-21%,-5%
Cc1ccc(NC(=O)CSc2nnc(-c3cc4occc4n3C)n2-c2ccccc2C)c(C)c1,-1%,12%,-4%,21%,x
COc1cccc(NS(=O)(=O)c2ccc3[nH]cc(C(=O)NC4CCCCC4)c(=O)c3c2)c1,1%,u,-7%,19%,x
C#CCOCCOCCOCCNc1nc(N2CCN(C(=O)[C@H](CCCCN)n3cc([C@@H](N)CC(C)C)nn3)CC2)nc(N2CCN(C(=O)[C@H](Cc3cc4ccccc4[nH]3)n3cc([C@@H](N)Cc4ccc(O)cc4)nn3)CC2)n1,1%,-1%,8%,45µM*,0%
C#CCOCCOCCOCCNc1nc(N2CCN(C(=O)[C@H](CCCCN)n3cc(C(N)CC(C)C)nn3)CC2)nc(N2CCN(C(=O)[C@H](CCC(=O)O)n3cc(C(N)[C@H](C)CC)nn3)CC2)n1 (stereo partly drawn),-1%,0%,10%,18µM*,0%
Nc1nc2ncn(COCCO)c2c(=O)[nH]1,1%,x,7%[0.0914 µM],19%,x
COc1ccc(C(=O)CCN2CCc3cc(OC)c(OC)cc3C2)cc1,2%,2%,-5%[57.1 µM],0.89µM*,-4%
COc1ccc(C(=O)CCN2CCN(c3ccccc3OC)CC2)cc1,0%,1%,0%,14µM*,2%
COC(=O)C1CCN(Cc2ccc3c(c2)CN(C(=O)c2cc(C4CC4)on2)CCO3)CC1,0%,x,x,x,x
O=C(CC(Nc1ccc(Cl)cc1Cl)C(=O)O)c1ccccc1 (stereo not drawn),0%,-25%,1%,25µM*,-1%
COc1ccccc1NC(CC(=O)c1ccccc1)C(=O)OCC(=O)c1ccc(C)cc1 (stereo not drawn),1%,-70%,-6%,-18%,0%

# Structures shown so far that contain a nitro group on carbon, in the order listed:
SMILES,PINK1 modulator,miR-21 reporter,TrxR1 substrate,rTrxR1 inhibitor,GALK inh
O=[N+]([O-])c1cnc2ccccc2c1,-1%,-5%,1%[57.1 µM],-14%[57.1 µM],x
O=[N+]([O-])c1cc([N+](=O)[O-])c2cc3ccccc3nc2c1,20%,8%,4%,45µM*,-7%

# Only rTrxR1 inhibitor, PINK1 modulator and miR-21 reporter (two entries from above):
smiles	rTrxR1 inhibitor	PINK1 modulator	miR-21 reporter
O=C(CCCN1C(=O)/C(=C\c2ccccc2)SC1=S)Nc1ccc(C(=O)O)cc1	u	0%	-3%
CC(=O)c1ccc(NC(=O)CCCN2C(=O)/C(=C/C(C)=C/c3ccccc3)SC2=S)cc1	-23%	22µM*	-3%
